Assay results published in patent US20090240027A1.

Amino acid sequences for entries named in this document (tags omitted). Residues count along the entry.
UniProt G1T803, 1-400: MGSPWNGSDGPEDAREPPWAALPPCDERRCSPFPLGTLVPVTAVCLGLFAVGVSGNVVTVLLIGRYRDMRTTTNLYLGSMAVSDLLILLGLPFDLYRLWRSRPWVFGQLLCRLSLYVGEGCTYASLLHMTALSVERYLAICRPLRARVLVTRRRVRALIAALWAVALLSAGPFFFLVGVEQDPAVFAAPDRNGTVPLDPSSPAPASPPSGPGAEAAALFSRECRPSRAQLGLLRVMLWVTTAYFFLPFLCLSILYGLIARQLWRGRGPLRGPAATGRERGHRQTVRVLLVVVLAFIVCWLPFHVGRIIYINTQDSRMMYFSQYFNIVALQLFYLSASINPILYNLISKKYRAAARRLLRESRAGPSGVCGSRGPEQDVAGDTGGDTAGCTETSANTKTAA
UniProt O43193, whole entry: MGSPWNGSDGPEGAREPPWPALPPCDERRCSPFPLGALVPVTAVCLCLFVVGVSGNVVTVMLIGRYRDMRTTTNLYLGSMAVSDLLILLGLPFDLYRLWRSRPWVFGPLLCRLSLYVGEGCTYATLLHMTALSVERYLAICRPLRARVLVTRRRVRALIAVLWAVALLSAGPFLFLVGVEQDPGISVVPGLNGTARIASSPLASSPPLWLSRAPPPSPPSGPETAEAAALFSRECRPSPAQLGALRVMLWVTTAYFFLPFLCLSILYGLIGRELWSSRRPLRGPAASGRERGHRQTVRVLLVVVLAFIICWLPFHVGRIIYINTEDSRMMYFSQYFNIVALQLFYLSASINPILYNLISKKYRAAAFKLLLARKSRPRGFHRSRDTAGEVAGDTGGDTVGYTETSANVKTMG

Molecular target: motilin receptor (Oryctolagus cuniculus, UniProt G1T803)
Assay: Rabbit duodenum contractility assay (Method B4)
Settings: from Schild plots; antagonism of motilin-induced contraction of rabbit duodenum

Row | pA2 | SMILES
1 | 6.95 | CC(C)[C@H]1NC(=O)[C@@H](Cc2cccc(Cl)c2)NCCOc2ccccc2CCCNC(=O)[C@H](CC2CC2)NC1=O

Molecular target: T1, human motilin receptor (Homo sapiens, UniProt O43193)
Assay: Competitive radioligand binding assay (Method B1)
Settings: read-out: Binding (Ki); Table 4; [125I]-motilin competition

Row | Ki [µM] | SMILES
2 | 0.001 to 0.1 | CC(C)[C@H]1NC(=O)[C@@H](Cc2cccc(Cl)c2)NCCOc2cccnc2CCCNC(=O)[C@H](CC2CC2)NC1=O

Same assay, conditions: read-out: Ki (binding activity); Radioligand competitive binding assay, Method B1; values reported as ranges

Row | SMILES | Ki [µM]
3 | CC(C)[C@H]1NC(=O)[C@@H](Cc2cccs2)NCCOc2ccccc2CCCNC(=O)[C@H](CC2CC2)NC1=O | 0.1 to 1
4 | CCC[C@@H]1NC(=O)[C@@H](C(C)C)NC(=O)[C@@H](Cc2ccc(O)cc2)NCCOc2ccccc2CCCNC1=O | 0.001 to 0.1
5 | CCC[C@@H]1OC(=O)[C@@H](C(C)C)NC(=O)[C@@H](Cc2ccc(O)cc2)NCCOc2ccccc2CCCNC1=O | 0.1 to 1
6 | CCC[C@@H]1NC(=O)[C@@H](C(C)C)NC(=O)[C@@H](Cc2ccccc2)NCCOc2ccccc2CCCNC1=O | 0.1 to 1
7 | CC(C)[C@H]1NC(=O)[C@@H](Cc2cccc3ccccc23)NCCOc2cccnc2CCCNC(=O)[C@H](CC2CC2)NC1=O | 0.1 to 1
8 | CC(C)C[C@@H]1NC(=O)[C@@H](C(C)C)NC(=O)[C@@H](Cc2cccc(Cl)c2)NC/C=C/CCNC1=O | 1 to 10
9 | CC(C)C[C@@H]1NC(=O)[C@@H](C(C)C)NC(=O)[C@@H](Cc2cccc3ccccc23)NCCOc2ccccc2CCCNC1=O | 0.001 to 0.1
10 | CCC[C@@H]1NC(=O)[C@@H](C(C)C)NC(=O)[C@@H](Cc2ccc(O)cc2)NC[C@@H](C)Oc2ccccc2CCCNC1=O | 0.1 to 1
11 | CC(C)C[C@H]1C(=O)NCCCc2ccccc2OCCN[C@H](Cc2ccc(O)cc2)C(=O)N[C@H](C(C)C)C(=O)N1C | 0.1 to 1
12 | CC(C)[C@H]1NC(=O)[C@@H](Cc2cccc(Cl)c2)NCCOc2ccccc2CCCNC(=O)[C@H](CC2CC2)NC1=O | 0.001 to 0.1
13 | COc1ccc(C[C@H]2NCCOc3cccnc3CCCNC(=O)[C@H](CC3CC3)NC(=O)[C@@H](C(C)C)NC2=O)cc1 | 0.1 to 1
14 | CC(C)[C@H]1NC(=O)[C@@H](Cc2ccc(O)cc2)NCCOc2ccccc2CCCNC(=O)[C@H](CN)NC1=O | 0.1 to 1
15 | CCC[C@@H]1NC(=O)[C@@H](C(C)C)OC(=O)[C@@H](Cc2ccc(O)cc2)NCCOc2ccccc2CCCNC1=O | 0.1 to 1
16 | CC1CNC(=O)[C@H](CC2CC2)NC(=O)[C@@H](C(C)C)NC(=O)[C@@H](Cc2cccc(Cl)c2)NCCOc2ccccc2C1 (stereo partly shown) | 0.001 to 0.1

More lines, now with the values ahead:

Row | Ki [µM] | SMILES
17 | 0.1 to 1 | CCC[C@@H]1NC(=O)[C@@H](C(C)C)NC(=O)[C@@H](Cc2ccc(O)cc2)NC[C@H](C)Oc2ccccc2CCCNC1=O
18 | 0.001 to 0.1 | CC(C)[C@H]1NC(=O)[C@@H](Cc2ccc(F)cc2)NCCOc2ccccc2CCCNC(=O)[C@H](CC2CC2)NC1=O
19 | 0.1 to 1 | CCC[C@@H]1NC(=O)[C@@H](C(C)C)OC(=O)[C@@H](Cc2ccc(OC)cc2)NCCOc2ccccc2CCCNC1=O
20 | 0.1 to 1 | CCC[C@@H]1NC(=O)[C@@H](C(C)C)OC(=O)[C@@H](Cc2cccc3ccccc23)NCCOc2ccccc2CCCNC1=O
21 | 0.1 to 1 | CC(C)C[C@@H]1NC(=O)[C@@H](C(C)C)NC(=O)[C@@H](Cc2cccc(Cl)c2)NCCOc2cccnc2CCCNC1=O
22 | 0.1 to 1 | CCC[C@@H]1NC(=O)[C@@H](C(C)C)NC(=O)[C@@H](Cc2ccc(O)cc2)NC/C=C/CCNC1=O
23 | 0.1 to 1 | CC(C)[C@H]1NC(=O)[C@@H](Cc2ccc(O)cc2)NCCOc2ccccc2/C=C/CNC(=O)CCNC1=O
24 | 0.1 to 1 | CC(C)[C@H]1NC(=O)[C@@H](Cc2ccc(F)cc2)NCCOc2cccnc2CCCNC(=O)[C@H](CC2CC2)NC1=O
25 | 0.001 to 0.1 | CCC[C@@H]1NC(=O)[C@@H](C(C)C)NC(=O)[C@@H](Cc2cccc(F)c2)NCCOc2ccccc2C(C)CCNC1=O (stereo partly shown)
26 | 0.001 to 0.1 | CCC[C@@H]1NC(=O)[C@@H](C(C)C)NC(=O)[C@@H](Cc2cccs2)NCCOc2ccccc2CCCNC1=O
27 | 0.001 to 0.1 | CC(C)[C@H]1NC(=O)[C@@H](Cc2cccc(Cl)c2)NCCOc2cccnc2CCCNC(=O)[C@H](CC2CC2)NC1=O

Molecular target: T1, human motilin receptor
Assay: Aequorin functional assay (Method B2)
Settings: read-out: IC50, Aequorin (Method B2); antagonist testing against motilin at EC80 (0.5 nM)

Row | IC50 [µM] | SMILES
28 | 0.1 to 1 | CC(C)[C@H]1NC(=O)[C@@H](Cc2cccc(Cl)c2)NCCOc2cccnc2CCCNC(=O)[C@H](CC2CC2)NC1=O
